# Measurements as given in PubChem BioAssay (NCATS).
# Sequences of proteins named here, by UniProt entry; tags and fusion partners are left off.
# UniProt P07203, whole entry: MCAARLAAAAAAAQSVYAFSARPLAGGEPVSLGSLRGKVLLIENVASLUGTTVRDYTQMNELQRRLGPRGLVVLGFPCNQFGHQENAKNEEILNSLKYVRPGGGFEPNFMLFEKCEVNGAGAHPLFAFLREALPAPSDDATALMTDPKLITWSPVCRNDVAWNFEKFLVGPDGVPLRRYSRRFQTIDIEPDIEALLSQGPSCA
# UniProt P36969, whole entry: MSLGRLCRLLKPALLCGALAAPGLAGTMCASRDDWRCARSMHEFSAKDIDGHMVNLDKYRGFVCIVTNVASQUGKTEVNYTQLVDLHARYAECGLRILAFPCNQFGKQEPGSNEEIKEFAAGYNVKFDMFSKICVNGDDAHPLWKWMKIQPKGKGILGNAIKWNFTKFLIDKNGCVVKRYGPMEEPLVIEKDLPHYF
# UniProt Q14994, whole entry: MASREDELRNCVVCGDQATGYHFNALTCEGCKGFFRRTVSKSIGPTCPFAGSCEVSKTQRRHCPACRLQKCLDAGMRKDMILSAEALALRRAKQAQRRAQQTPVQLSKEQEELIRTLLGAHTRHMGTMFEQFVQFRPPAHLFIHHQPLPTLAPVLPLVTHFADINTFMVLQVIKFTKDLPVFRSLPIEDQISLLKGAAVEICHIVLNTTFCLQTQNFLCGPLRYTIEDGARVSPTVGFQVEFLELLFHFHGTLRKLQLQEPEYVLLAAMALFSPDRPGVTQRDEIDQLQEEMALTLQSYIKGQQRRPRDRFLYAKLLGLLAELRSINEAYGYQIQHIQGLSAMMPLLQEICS
# The entries are a selection whose mix differs from that of the whole data set. Inconclusive results are not listed. Some salts or complexes appear as unconnected parts, following the source record. The source made the active and inactive calls. Unless noted, calls follow the shape of the dose curve; as a rule, active = well fitted curve in the direction sought with a large enough effect; inconclusive = small, poorly fitted or top-dose-only effect, or another doubt; inactive = no such curve, though single readings can be large; an effect the other way counts as inactive or inconclusive.
# Key:
# [1] = target: Glutathione peroxidase 1 (Homo sapiens) (UniProt P07203); test: Primary qHTS Assay for Inhibitors of Recombinant Selenoprotein Glutathione Peroxidase 1 (GPX1) (AID 1845191); details: recombinant GPX1, GR-coupled NADPH fluorescence, 15 min; activity, negative = inhibition: at 48.8 µM (top of the series) unless noted; also: nearly all actives have a fitted effect of over 65% in size; as to activity, negative = inhibition: % is scaled to controls: 0 for no effect and ±100 for the full control effect
# Method in brief: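 Recombinant GPX1 (10 nM final) was preincubated with compound for 30 min at room temperature, then reacted with 1 mM GSH, 0.5 mM CHP, 0.5 mM NADPH and 100 nM glutathione reductase; NADPH fluorescence (340/450 nm) was read at 0 and 15 min.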
# [2] = target: Phospholipid hydroperoxide glutathione peroxidase GPX4 (Homo sapiens) (UniProt P36969); test: Primary qHTS Assay for Inhibitors of Recombinant Selenoprotein Glutathione Peroxidase 4 (GPX4) (AID 1845192); details: recombinant GPX4, GR-coupled NADPH fluorescence, 15 min; activity change, negative = inhibition: at 50 µM (top of the series) unless noted; also: nearly all actives have a fitted effect of over 65% in size; as to activity change, negative = inhibition: % is scaled to controls: 0 for no effect and ±100 for the full control effect
# Method in brief: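 GR-coupled readout: 100 nM GR, 1 mM GSH, 0.5 mM NADPH; NADPH fluorescence (ex 340/em 450 nm) read at t=0 and after 15 min RT. GPX4 200 nM, preincubated 30 min with compound; substrate 0.5 mM CHP.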
# [3] = target: Luciferin 4-monooxygenase (Photinus pyralis) (UniProt P08659); test: Primary firefly luciferase (FLuc) qHTS assay for identification of artifact compounds. (AID 1845220); details: purified firefly luciferase, luminescence, 5 min; at 54.1 µM (top of the series) unless noted;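 also: plate controls were DMSO vehicle for no effect and no enzyme for full effect; nearly all actives have a fitted effect of over 60% in size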
# Method in brief: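 qHTS, 15 min compound preincubation with substrate (10 uM luciferin, 10 uM ATP) at RT, then 10 nM FLuc; 5 min; luminescence; % inhibition vs no-enzyme/DMSO controls, 4-parameter Hill fit.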
# [4] = target: Guanidinoacetate N-methyltransferase (Homo sapiens) (UniProt Q14353); test: Confirmatory Screen for Target Class Profiling of Small Molecule Inhibitors of Methyltransferases (AID 1745852; calls by dose curve; also: potency is read from the fitted curve at half-maximal effect); details: MTase-Glo luminescence, SAH detection, recombinant enzyme
# [5] = target: Rap guanine nucleotide exchange factor 3 (Homo sapiens) (UniProt O95398); test: Counterscreen qHTS for antagonist of cAMP-regulated guanine nucleotide exchange factor 3 (EPAC1) (AID 1645888); details: Rap1B-BODIPY-GDP nucleotide exchange, fluorescence; at 154 µM (top of the series);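 also: fluorescence loss as bound BODIPY-GDP is released from Rap1B; % of control where 0% means no effect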
# Method in brief: (§1)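 Measured: fluorescence of BODIPY-GDP bound to Rap1B, which falls as exchange proceeds. Conditions include 50 uM competing GDP, 5 and 30 min reads, and a later cAMP challenge for antagonist detection.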
# [6] = target: Rap guanine nucleotide exchange factor 3 (Homo sapiens) (UniProt O95398); test: Counterscreen qHTS for agonist of cAMP-regulated guanine nucleotide exchange factor 3 (EPAC1) (AID 1645889); details: EPAC1 Rap1B-BODIPY-GDP exchange, fluorescence; at 154 µM (top of the series); also: % of control where 0% means no effect; nearly all actives have a fitted effect of over 40% in size
# Method in brief: as §1
# [7] = target: Nuclear receptor subfamily 1 group I member 3 (Homo sapiens) (UniProt Q14994); test: Primary qHTS for antagonist of constitutive androstane receptor (CAR) against the NCATS DSHEA and TCM libraries (AID 1794836); details: CAR reporter cell assay, antagonist mode, luciferase; at 40 µM (top of the series)
# Method in brief: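 HepG2 cells stably carrying hCAR and a CYP2B6 luciferase reporter (2,500 cells/well) attached for 5 h, then received compounds with 48 uM CITCO for 24 h at 37C. ONE-Glo luminescence read antagonism; CellTiter-Fluor (405/540 nm) gave viability.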
# [8] = Viability counterscreen for agonist of constitutive androstane receptor (CAR) against the NCATS DSHEA and TCM libraries (AID 1794838); details: HepG2 cell viability counterscreen, CAR agonist assay, co-treated with 0.75 µM CAR antagonist; at 40 µM (top of the series);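 also: HepG2 cells with CYP2B6 reporter and hCAR plus 0.75 µM PK11195 antagonist; 0% is about no effect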
# Method in brief: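 Cell health was measured as CellTiter-Fluor signal in HepG2-CYP2B6-hCAR cells treated for 24 h with substances alongside the hCAR antagonist PK11195 (0.75 uM final).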
# [9] = HepG2 viability counterscreen (readout 2: ATP content) against the NCATS DSHEA and TCM libraries (AID 1794840); details: ATP content luminescence; at 27.3 µM (top of the series); also: 0% is about no effect
# Method in brief: (§2)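 Same wells read twice: first fluorescence from cleaved GF-AFC substrate (25 uM final, 30 min, 37C) for live-cell protease, then CellTiter-Glo luminescence after 30 min at room temperature for ATP. HepG2 cells were exposed ~24 h to substances.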
# [10] = HepG2 viability counterscreen (readout 1: protease activity) against the NCATS DSHEA and TCM libraries (AID 1794841); details: qHTS concentration series; at 27.3 µM (top of the series);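 also: cells exposed to compounds for about 24 h before the protease read; 0% is about no effect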
# Method in brief: as §2
smiles,measurement,setting,value
O=[N+]([O-])c1cccc([N+](=O)[O-])c1,"activity, negative = inhibition",[1],inactive: -10.8%
same,"activity change, negative = inhibition",[2],inactive: -17.5%
CCOP(=O)(CC)Oc1ccc([N+](=O)[O-])cc1 (stereo not drawn),outcome,[1],inactive
same,outcome,[2],inactive
same,"activity change, negative = inhibition",[3],inactive: 1.43%
CC(C)OP(=O)(F)OC(C)C,"activity, negative = inhibition",[1],inactive: -3.92%
same,"activity change, negative = inhibition",[2],inactive: -4.84%
C/C1=C2N=C(/C=C3N=C(/C(C)=C4\N=C(C(CC(N)=O)C4(C)CCC(=O)NCC(C)OP(=O)([O-])OC4C(CO)OC(n5cnc6cc(C)c(C)cc65)C4O)C4(C)N=C1C(CCC(N)=O)C4(C)CC(N)=O)C(CCC(N)=O)C\3(C)C)C(CCC(N)=O)C/2(C)CC(N)=O.[C-]#N.[Co] (stereo not drawn),Potency,[4],active: 16.7 µM [inhibitor]
same,"activity, negative = inhibition",[1],inactive: -16% [at 27.7 µM]
same,"activity change, negative = inhibition",[2],inactive: -7.51% [at 27.8 µM]
same,"activity change, negative = inhibition",[3],inactive: -12.7% [at 25.7 µM]
O=[N+]([O-])OCC(CO[N+](=O)[O-])(CO[N+](=O)[O-])CO[N+](=O)[O-],"activity, negative = inhibition",[1],inactive: -10.7%
same,"activity change, negative = inhibition",[2],inactive: -12.9%
O=[N+]([O-])c1cc([N+](=O)[O-])c(C(F)(F)F)c([N+](=O)[O-])c1O,"activity change, negative = inhibition",[5],inactive: 3.6%
same,activation,[6],inactive: 13%
C/C1=C2/N=C(C(CC(N)=O)C2(C)CCC(=O)NCC(C)OP(=O)([O-])OC2C(CO)OC(n3cnc4cc(C)c(C)cc43)C2O)C2(C)N=C(/C(C)=C3N=C(/C=C4N=C1C(CCC(N)=O)C\4(C)C)C(CCC(N)=O)C/3(C)CC(N)=O)C(CCC(N)=O)C2(C)CC(N)=O.[C-]#N.[Co] (stereo not drawn),"activity, negative = inhibition",[1],inactive: -15.6%
same,outcome,[2],inactive
C/C1=C2N=C(/C=C3N=C(/C(C)=C4\[N-][C@@](C)([C@@H]5N=C1[C@](C)(CCC(=O)NC[C@@H](C)OP(=O)([O-])O[C@H]1[C@@H](O)[C@@H](n6cnc7cc(C)c(C)cc76)O[C@@H]1CO)[C@H]5CC(N)=O)[C@@](C)(CC(N)=O)[C@@H]4CCC(N)=O)[C@@](C)(CC(N)=O)[C@@H]\3CCC(N)=O)C(C)(C)[C@@H]/2CCC(N)=O.[C-]#N.[Co+3],"activity change, negative = inhibition",[7],inactive: -4.29%
same,"activity change, negative = cytotoxicity",[8],inactive: -53.6%
same,"activity change, negative = cytotoxic",[9],inactive: -0.621%
same,"activity change, negative = inhibition",[10],inactive: 9.45%
same,"activity, negative = inhibition",[1],inactive: -7.88%
same,"activity change, negative = inhibition",[2],inactive: -5.71%
